Bioassay records as filed in PubChem BioAssay.
RAD54 branch: blocks human RAD54 Holliday junction branch migration; FAM/BHQ fluorescence; Q92698; actives 0.14% (n = 360,000); inhibition, % at 10.4 µM;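 active = mean normalized replicate activity at least 40 and at least half of replicates scoring 40 or more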;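 note: inhibitors cause a drop in the FAM fluorescence signal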
RAD52 anneal inh: inhibitors of human RAD52 DNA annealing; inhibition, % at 18.7 µM; actives 0.46% (n = 360,000); recombinant RAD52 DNA annealing, FRET fluorescence;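 active = every replicate showing at least 50% inhibition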
E-selectin induc: induces E-selectin expression in human endothelial cells; P16581; HUVEC E-selectin immunofluorescence imaging; normalized: neutral wells 0, TNF-alpha wells 100; activation, % at 7.58 µM; actives 0.37% (n = 260,000);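 active = mean E-selectin-positive cell signal at least 10% of the positive control, reached in at least 60% of replicates, without over 20% cell loss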
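assay system = HUVEC, human umbilical vein endothelial cells | input = 3,000 HUVEC seeded per well | medium = EGM-2 growth medium on 0.1% gelatin-coated wells | dosing = one compound dose added by pin transfer | signal = immunofluorescence imaging | read-out basis = % PE-positive cells | control set = TNF-alpha, DMSO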
UUG fidelity: alters start codon recognition fidelity in yeast; S. cerevisiae UUG-firefly luciferase reporter, luminescence/redox ratio; activity score, % at 18.7 µM; hit rate 0.13% among 350,000;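 active = replicate mean at a twofold rise or more, about +100% in these data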;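 also: firefly luciferase made from a UUG start codon reports start codon fidelity; reporter light over untreated wells divided by growth signal over untreated wells; some hits fall short of that in this replicate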
SIRT5 block: sirtuin-5 (human) deacylase inhibition; Purified SirT5, succinyl-peptide AMC, trypsin-coupled fluorescence; Q9NXA8; inhibition, % at 15 µM; actives 1.1% (n = 330,000); in the data active = inhibition above about 15%
AF4-AF9 inh: MLL-AF4/AF9 protein interaction inhibition; AID 651704; AlphaScreen, biotin-AF4 peptide binding to FLAG-AF9; actives 0.47% (n = 350,000); inhibition, % at 10 µM; P42568;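 active = every replicate reaching a set inhibition limit, whatever the replicate mean, cut at about 25% in these data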
Of the large screens only hits and unclear results are named; the others gave an inactive call. Compounds with a hit are over-represented: about 1.8% of the library has one in this group of screens.

O=C(Nc1ccccc1F)N[C@H]1CC[C@H](CCNC(=O)C2CCC2)O[C@@H]1CO	none
O=S(=O)(N[C@H]1CC[C@@H](CCn2cc(-c3ccc(F)cc3)nn2)O[C@@H]1CO)c1ccccc1F	none
C[C@@H]1CN([C@H](C)CO)C(=O)c2cc(NC(=O)Nc3ccc4c(c3)OCO4)ccc2O[C@@H](C)CCCCO[C@H]1CN(C)Cc1ccc2c(c1)OCO2	AF4-AF9 inh 39 (no result: E-selectin induc)
C[C@@H]1CCCCO[C@@H](CN(C)Cc2ccccc2)[C@H](C)CN([C@H](C)CO)C(=O)c2cc(NC(=O)Nc3ccc4c(c3)OCO4)ccc2O1	AF4-AF9 inh 31
CC(C)NC(=O)N(C)C[C@H]1Oc2cc(C#Cc3ccccn3)ccc2S(=O)(=O)N([C@H](C)CO)C[C@H]1C	none
O=C(CN1C(=O)/C(=C/c2ccco2)SC1=S)Nc1ccc(C(=O)O)c(O)c1	SIRT5 block 62 (no result: E-selectin induc)
O=C(CN1C(=O)/C(=C/c2ccco2)SC1=S)Nc1ccc(O)c(C(=O)O)c1	SIRT5 block 53 (no result: E-selectin induc)
CC(C(=O)Nc1ccc(C(=O)O)c(O)c1)N1C(=O)/C(=C\c2ccco2)SC1=S (stereo not given)	none (no result: RAD52 anneal inh, E-selectin induc, SIRT5 block, AF4-AF9 inh)
CO[C@@H]1CN(C)C(=O)c2cc(NC(=O)Nc3ccccc3)ccc2OC[C@@H](C)N(C(=O)CC2CC2)C[C@H]1C	none (no result: RAD54 branch, RAD52 anneal inh, UUG fidelity, SIRT5 block, AF4-AF9 inh)
O=C(c1ccccc1)N1CC(=O)N2[C@H](CO)[C@@H](c3ccc(C#CCC4CCCC4)cc3)[C@H]2C1	none (no result: RAD54 branch, UUG fidelity)
CC=Cc1ccc2n(c1=O)C[C@H]1[C@H](CO)[C@@H](C(=O)NCc3ccc(F)cc3)[C@@H]2N1CCC (mixture of isomers)	none (no result: UUG fidelity)
Cc1ccc(CN2C(=O)CCC2(C)c2nnnn2-c2c(C)cccc2C)cc1 (stereo not given)	SIRT5 block 16 (no result: RAD54 branch, UUG fidelity)
COc1ccc(NC(=O)Nc2ccc3c(c2)C(=O)N([C@H](C)CO)C[C@H](C)[C@@H](CN(C)Cc2ccc(C(F)(F)F)cc2)OCCCC[C@H](C)O3)cc1	none
COc1ccc(CN(C)C[C@@H]2OCCCC[C@H](C)Oc3ccc(NC(=O)Nc4ccc(C(F)(F)F)cc4)cc3C(=O)N([C@H](C)CO)C[C@H]2C)cc1	RAD52 anneal inh 65 (no result: E-selectin induc)
COc1ccc(CN(C)C[C@@H]2OCCCC[C@H](C)Oc3ccc(NC(=O)Nc4ccc(C(F)(F)F)cc4)cc3C(=O)N([C@@H](C)CO)C[C@H]2C)cc1	RAD52 anneal inh 52 (no result: E-selectin induc)
COc1ccc(COCC23N=C4SCC(=O)N4[C@H](c4ccccc4O2)[C@H]3CO)cc1	none (no result: E-selectin induc)
COc1ccc(COC[C@]23NC(=O)N[C@H](c4ccccc4O2)[C@H]3CO)cc1	AF4-AF9 inh 26 (no result: E-selectin induc)
CO[C@H]1O[C@H](CO)[C@@H](OC(=O)Nc2ccccc2)[C@H](OC(=O)Nc2ccc3c(c2)OCO3)[C@@H]1OC(=O)Nc1ccc2c(c1)OCO2	AF4-AF9 inh 27 (no result: E-selectin induc)
CCC(C(=O)N1CCOCC1)n1nc(C)c2sc3ccccc3c2c1=O (stereo not given)	SIRT5 block 30 (no result: E-selectin induc)
COCC(=O)Nc1ccc2c(c1)OC[C@H](C)N(Cc1cccc(F)c1)C[C@H](C)[C@@H](OC)CN(C)C2=O	none (no result: RAD54 branch, UUG fidelity)
CN(CCCC(=O)O)c1ccc(N=Nc2ccc([N+](=O)[O-])cc2)cc1	AF4-AF9 inh 38 (no result: RAD54 branch, UUG fidelity)
COc1cccc(NC(=O)C2C3C=CC4(O3)C2C(=O)N(CCCN2CCC(C)CC2)C4C(=O)NC2CCCCC2)c1 (stereo not given)	none
CCN(CC)CCN1C(=O)C2C(C(=O)Nc3cccc(C)c3)C3C=CC2(O3)C1C(=O)NC1CCCC(C)C1C (stereo not given)	SIRT5 block 19 (no result: E-selectin induc)
COc1cccc(NC(=O)C2C3C=CC4(O3)C2C(=O)N(CCCN2CCCCC2)C4C(=O)NC2CCCCC2)c1 (stereo not given)	E-selectin induc 29
CCN(C[C@H]1N[C@@](Cc2ccccc2)(C(=O)OC)[C@H]2C(=O)N(C)C(=O)[C@@H]12)C(=O)Nc1ccc(C(F)(F)F)cc1	SIRT5 block 28
O=C(O)C[C@H]1C[C@H]2c3cc(NS(=O)(=O)c4ccccc4)ccc3O[C@H]2[C@@H](CO)O1	none (no result: RAD54 branch, UUG fidelity)
CC(C)c1ccccc1NC(=O)c1cnccn1	SIRT5 block 20 (no result: E-selectin induc, AF4-AF9 inh)
COc1cc(=O)[nH]c(SC(C)C(=O)Nc2cccc3ccccc23)n1 (stereo not given)	SIRT5 block 75 (no result: E-selectin induc)
COc1cc(=O)[nH]c(SC(C)C(=O)Nc2nc3c(s2)CCCC3)n1 (stereo not given)	none (no result: E-selectin induc)
CC(C(=O)Nc1ccc(S(=O)(=O)N2CCOCC2)cc1)N1CCN(c2ccccn2)CC1 (stereo not given)	SIRT5 block 29 (no result: RAD54 branch, UUG fidelity)
CC(=O)Nc1ccc(S(=O)(=O)N2CCN(c3ccccn3)CC2)cc1	none (no result: RAD52 anneal inh, E-selectin induc, SIRT5 block, AF4-AF9 inh)
O=C(C[C@H]1CC[C@@H](NS(=O)(=O)c2ccc(F)cc2)[C@@H](CO)O1)N1CCC(Cc2ccccc2)CC1	none
O=C(C[C@H]1CC[C@@H](NS(=O)(=O)c2ccccc2)[C@@H](CO)O1)NCc1ccncn1	SIRT5 block 21
O=C(C[C@@H]1CC[C@@H](NS(=O)(=O)c2ccc(F)cc2)[C@@H](CO)O1)N1CCC(Cc2ccccc2)CC1	SIRT5 block 28
O=C(C[C@@H]1CC[C@H](NS(=O)(=O)c2ccc(F)cc2)[C@H](CO)O1)N1CCN(c2ccccc2)CC1	SIRT5 block 20
C[C@H](CO)N1C[C@H](C)[C@H](CN(C)C(=O)c2ccccc2)Oc2ncc(-c3ccc(C#N)cc3)cc2C1=O	none
CCOc1ccccc1NC(=O)COC(=O)CC(C)(C)CC1=NS(=O)(=O)c2ccccc2N1	SIRT5 block 18 (no result: E-selectin induc)
Cc1cc(C)cc(NC(=O)COC(=O)CCCC2=NS(=O)(=O)c3ccccc3N2)c1	none (no result: RAD54 branch, UUG fidelity)
C[C@H](CO)N1C[C@H](C)[C@@H](CN(C)Cc2cncnc2)Oc2ncc(C#Cc3ccccn3)cc2C1=O	none
CCOC(=O)CC1=NN(c2ccccc2)C(=O)C1=c1sc(=C2SC(C)=C(C)N2CC)c(=O)n1CC	AF4-AF9 inh 40
O=S(=O)(c1ccc(F)cc1)N1CCCCN2[C@H](CO)[C@H](c3ccc(-c4ccccc4)cc3)[C@@H]2C1	none
COc1cc(NC(=S)N2CCOCC2)c(OC)cc1Cl	E-selectin induc 26 (no result: SIRT5 block)
O=C(N[C@H]1CC[C@@H](CCNC(=O)C2CCOCC2)O[C@H]1CO)c1ccccn1	none
CCCCCCCCN1C(=O)[C@H](CC(=O)NCc2cccc3ccccc23)C[C@@]2(C(=O)OCC)CCC=C12	SIRT5 block 16 (no result: RAD54 branch, UUG fidelity)
CCOC(=O)[C@]12CCC=C1N(Cc1cccc3ccccc13)C(=O)[C@H](CC(=O)NCc1cccc3ccccc13)C2	none (no result: RAD54 branch, E-selectin induc, UUG fidelity)
COc1ccc(OC)c(NC(=O)c2ccc(Cl)cc2)c1	none (no result: RAD54 branch, E-selectin induc, UUG fidelity)
COc1ccc(OC)c(NC(=O)c2csc(Cl)c2OC)c1	E-selectin induc 38
O=C(O)CCC(=O)NCC(=O)c1ccc(F)cc1	E-selectin induc 70 (no result: SIRT5 block)
